Measured values from patent US9902690B2, “Ethoxylated surfactants” (priority 2013, dated 2018).

Assay: Solubility (surfactant parameters, standard procedures)

Substance | Solubility [mM]
polyoxyethylene (10) stearyl ether | 0.30
polyoxyethylene (20) stearyl ether | 20
